The values below are quoted from earlier work in patent EP1134585B1, “Biosensor and method for the monitoring of herbicides” (CONSIGLIO NAZIONALE DELLE RICERCHE, priority 2000, dated 2001).

Each structure is given as a SMILES string.

The target of data set [1] is D1 protein Ser264→Ala Asn266→Thr (Chlamydomonas reinhardtii, UniProt P07753, N266T/S264A). Particulars: cited from earlier work.
Data set [2] deals with D1 protein Val219->Ile (Chlamydomonas reinhardtii, UniProt P07753, V219I). Particulars: code Dr2; cited from earlier work.
Data set [3] has as its target D1 protein Ser264->Ala (Chlamydomonas reinhardtii, UniProt P07753, S264A). The settings on record: codes MZ1 MZ3 MZ5; cited from earlier work.
Data set [4] deals with D1 protein Ala251-Val (Chlamydomonas reinhardtii, UniProt P07753, A251V). The settings on record: code MZ2; cited from earlier work.
For data set [5], the target named is D1 protein I1e259->Ser Ser264->Ala Asn266->Thr (Chlamydomonas reinhardtii, UniProt P07753, I259S/N266T/S264A). The settings on record: cited from earlier work.
The target of data set [6] is D1 protein Leu275->Phe (MZ4) (Chlamydomonas reinhardtii, UniProt P07753, L275F). The settings on record: code MZ4; cited from earlier work.
Data set [7] has as its target D1 protein Leu275->Phe (Br202) (Chlamydomonas reinhardtii, UniProt P07753, L275F). Particulars: code Br202; cited from earlier work.
For data set [8], the target named is D1 protein A/a251->lIe (Chlamydomonas reinhardtii, UniProt P07753, A251I). The settings on record: cited from earlier work.
Data set [9] concerns the target D1 protein Phe255->Tyr Ser264->Ala (Synechococcus elongatus, UniProt P04996, F255Y/S264A). Particulars: code D5; cited from earlier work.
The target of data set [10] is D1 protein Gly256->Asp (Chlamydomonas reinhardtii, UniProt P07753, G256D). The settings on record: code BR24; cited from earlier work.
Data set [11] deals with D1 protein Ala251→Leu (Chlamydomonas reinhardtii, UniProt P07753, A251L). Particulars: cited from earlier work.
In data set [12] the target is D1 protein Phe255->Leu Ser264→Ala (Synechococcus elongatus, UniProt P04996, F255L/S264A). Particulars: Synechococcus PCC7942, code Di22; cited from earlier work.
Data set [13] addresses D1 protein A1a251→Gly (Chlamydomonas reinhardtii, UniProt P07753, A251G). The settings on record: cited from earlier work.
Data set [14] has as its target D1 protein A1a251->Cys (Chlamydomonas reinhardtii, UniProt P07753, A251C). The settings on record: cited from earlier work.
The target in data set [15] is D1 protein Phe255->Tyr (Chlamydomonas reinhardtii, UniProt P07753, F255Y). The settings on record: code Ar207+; cited from earlier work.
Data set [16] concerns the target D1 protein Ser264->Ala (Synechococcus elongatus, UniProt P04996, S264A). Particulars: Anacystis nidulans R2; cited from earlier work.
Data set [17] addresses D1 protein Phe211→Ala Met214→Thr (Chlamydomonas reinhardtii, UniProt P07753, F211A/M214T). Particulars: cited from earlier work.
The target of data set [18] is D1 protein Phe211-+Gly Met214->Ser (Chlamydomonas reinhardtii, UniProt P07753, F211G/M214S). Particulars: cited from earlier work.
The target of data set [19] is D1 protein Ser264->Pro (Synechocystis sp., UniProt P16033, S264P). The settings on record: cited from earlier work.
Data set [20] deals with D1 protein A1a250->His (Chlamydomonas reinhardtii, UniProt P07753, A250H). Particulars: cited from earlier work.
Data set [21] deals with D1 protein Phe211->Thr Met214->Gly (Chlamydomonas reinhardtii, UniProt P07753, F211T/M214G). Particulars: cited from earlier work.
Data set [22] has as its target D1 protein A1a263->Pro (Synechocystis sp., UniProt P16033, A263P). Particulars: cited from earlier work.
The target of data set [23] is D1 protein Phe211→Gly Met214→Gln (Chlamydomonas reinhardtii, UniProt P07753, F211G/M214Q). The settings on record: cited from earlier work.
The target of data set [24] is D1 protein Ala250->Asp (Chlamydomonas reinhardtii, UniProt P07753, A250D). The settings on record: cited from earlier work.
In data set [25] the target is D1 protein Ala250->Arg (Chlamydomonas reinhardtii, UniProt P07753, A250R). The settings on record: cited from earlier work.
In data set [26] the target is D1 protein A1a250->Tyr (Chlamydomonas reinhardtii, UniProt P07753, A250Y). The settings on record: cited from earlier work.
The target in data set [27] is D1 protein Ala250->Asn (Chlamydomonas reinhardtii, UniProt P07753, A250N). Particulars: cited from earlier work.

Consider `CNC(=O)Nc1nc2ccccc2s1` [Benzthiazuron], for which the “R/S Resistance” value in [1] is on record as “Benzthiazuron 50”; in data set [2], “Benzthiazuron 16”; in [3], 49-80; in data set [4] it was “Benzthiazuron 16”; in [5] it was “Benzthiazuron 20”; in data set [6], “Benzthiazuron 4”.
For `CCC(C)n1c(=O)[nH]c(C)c(Br)c1=O` (centres unmarked) [Bromacil], the “R/S Resistance” value was “Bromacil 4,5” in [7]; “Bromacil 11” in data set [8]; “Bromacil 106” in data set [3]; “Bromacil 17” in data set [9]; “Bromacil 10” in data set [10]; “Bromacil 26” in data set [11]. Besides, the “R/S Resistance” value in [12] is recorded as “Bromacil 37”.
In the case of `O=C1C(Br)=C(Br)C(=O)C(Br)=C1Br` [Bromanil], the “R/S Resistance” value in [2] is on record as “Bromanil 1,2-2”.
As for `N#Cc1cc(Br)c(O)c(Br)c1` [Bromoxynil], the results for the “R/S Resistance” value in data set [13] and in data set [14] were “Bromoxynil 2,5” and “Bromoxynil 6,3”, respectively.
Turning to `CCC(C)c1cc([N+](=O)[O-])cc([N+](=O)[O-])c1O` (centres unmarked) [Dinoseb], the “R/S Resistance” value in data set [15] is “Dinoseb 3”; in data set [2] it was “Dinoseb 7,5”; in data set [4], “Dinoseb 3”.
Take `CCS(=O)(=O)c1nnc(N(C)C(=O)NC)s1` [Ethidimuron]: the “R/S Resistance” value in [12] was “Ethidimuron 16”.
Regarding `CCCCCCCc1cc(O)c2ccccc2[n+]1[O-]` [HQNO], the “R/S Resistance” value in data set [16] is “HQNO 6”.
Regarding `O=c1[nH]c2c(c(=O)n1C1CCCCC1)CCC2` [Lenacil], the “R/S Resistance” value is on record as “Lenacil 160” in data set [4] and “Lenacil 3” in [6].
For `CSc1nnc(C(C)(C)C)c(=O)n1N` [Metribuzin], the “R/S Resistance” value in data set [1] is listed as “Metribuzin 1580”; in [8], “Metribuzin 55”; in data set [17] it was “Metribuzin 1”; in data set [2] it was “Metribuzin 200”; in [18], “Metribuzin 1,6”; in data set [4], “Metribuzin 1000”. Further, the “R/S Resistance” value was “Metribuzin 25” in data set [19]; “Metribuzin 2000” in [9]; “Metribuzin 1,3” in data set [20]; “Metribuzin 108” in data set [11]; “Metribuzin 175” in data set [12]; “Metribuzin 1” in data set [21]. For the same compound, the “R/S Resistance” value is “Metribuzin 1600” in data set [22]; “Metribuzin 1” in data set [23]; “Metribuzin 1550” in data set [5]; “Metribuzin 20-26” in data set [6]; “Metribuzin 2,5” in [14]; “Metibuzin 1,3” in data set [24].
`CCN(C(=O)Oc1cccc(NC(=O)OC(C)C)c1)c1ccccc1` [Phenisopham]: the “R/S Resistance” value in [3] was “Phenisopham 40”.
As for `CCNc1nc(NC(C)(C)C)nc(SC)n1` [Terbutryn], the “R/S Resistance” value in data set [13] is “Terbutryn 1”; in data set [25] it was “Terbutryn 1,3”; in [19], “Terbutryn 300”; in data set [26] it was “Terbutryn 1,3”; in [20], “Terbutryn 1,8”; in [12], “Terbutryn 1,5”. In addition, the “R/S Resistance” value in [22] is “Terbutryn 160”; in data set [27] it was “Terbutryn 1,3”; in [14], “Terbutryn 1,0”.
Consider `CNC(=O)N(C)c1nnc(C(C)(C)C)s1` [Thebuthiron], for which the “R/S Resistance” value in data set [12] is on record as “Thebuthiron 6,2”.
With `CC(C)Cc1cc([N+](=O)[O-])cc([N+](=O)[O-])c1O` [i-Dinoseb], in data set [6], the “R/S Resistance” value is given as “i-Dinoseb 3”.
